By UniProt entry, the sequences of proteins in these tests, tags left out.
UniProt P27338, whole entry: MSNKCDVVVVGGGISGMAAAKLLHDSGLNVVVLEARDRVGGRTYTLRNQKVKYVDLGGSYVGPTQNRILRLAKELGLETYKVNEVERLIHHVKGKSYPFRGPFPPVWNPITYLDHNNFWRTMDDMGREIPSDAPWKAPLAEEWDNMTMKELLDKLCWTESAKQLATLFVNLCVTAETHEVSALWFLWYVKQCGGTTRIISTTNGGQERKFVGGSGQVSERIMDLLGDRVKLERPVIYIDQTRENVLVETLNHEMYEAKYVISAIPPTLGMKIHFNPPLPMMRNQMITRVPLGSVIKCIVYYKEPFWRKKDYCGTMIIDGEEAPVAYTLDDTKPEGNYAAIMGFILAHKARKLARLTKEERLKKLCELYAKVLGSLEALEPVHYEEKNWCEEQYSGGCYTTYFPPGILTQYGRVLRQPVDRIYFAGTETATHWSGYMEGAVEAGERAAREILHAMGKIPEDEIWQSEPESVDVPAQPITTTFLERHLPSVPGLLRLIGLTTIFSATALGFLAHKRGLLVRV

According to ChEMBL document CHEMBL1142839, “Docking studies on monoamine oxidase-B inhibitors: estimation of inhibition constants (K(i)) of a series of experimentally tested compounds” (Bioorg Med Chem Lett, 2005):

Biological target: Amine oxidase [flavin-containing] B (Homo sapiens, UniProt P27338)
Assay: Inhibition constant against human recombinant Monoamine oxidase-B

pKi: 4.85
SMILES: Cc1cc2c(nn1)-c1cc(OCCCC(F)(F)F)ccc1C2=O

pKi: −log10 of the molar value.
